Source: patent US12139488B2, “Pyrido[3,2-d]pyrimidine compounds uses thereof for treating a proliferative disease” (Universite de Montreal, priority 2021, dated 2024)
pEC50, pIC50: −log10 of the molar value. Where two headings read alike, the source gives them in different places.

Key:
[1] = test system: pERK in HCT-116 cells (KRAS G13D); test: Phospho-ERK inhibition (AlphaLISA SureFire Ultra p-ERK 1/2), HCT116; conditions: for HCT116 pERK % Ymin: value in parentheses; for HCT116 pERK % Ymin (lowest value of the IC50 curve): Ymin above −20% = minimal or no paradoxical activation; for pIC50: read-out: HCT116 pERK IC50; for HCT116 pERK Ymin %: Ymin in brackets
How it was run: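 Read-out: AlphaLISA p-ERK1/2 (Thr202/Tyr204) in lysates after 1 h exposure to compound in complete RPMI-1640, 5% FBS, 0.5% DMSO. Trametinib defined 100% inhibition and vehicle 0%; IC50 values come from four-parameter curves. Negative inhibition was taken as paradoxical pERK induction.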

[2] = test system: pERK in IPC298 cells (NRAS-Q61L); test: Phospho-ERK inhibition (AlphaLISA), IPC298; conditions: for IPC298 pERK % Ymin: IPC298, value in parentheses; for pIC50: read-out: IPC298 pERK IC50, IPC298
Protocol: (§1) All cancer cell lines (A375, A101D, A2058, RKO, HT29 SK-MEL 30, IPC298, HepG2, HCT-116, Lovo, SWV620, SW480, NCI-H358, NCI-H2122, Calu-6, NCIH2087, NCIH1755, NCIH1666 and Mewo) were obtained from ATCC and cultured in RPMI-1640 medium (Gibco) supplemented with 5% heat inactivated fetal bovine serum (FBS, Wisent) at 37° C. under 5% CO2. Cells were maintained in T175 flasks (Greiner). They were passaged by removing the culture medium, washing once in 10 mL of room temperature Phosphate Buffered Saline (PBS; Wisent) and incubating at 37° C. with 2 mL of 0.05% Trypsin (Thermo-Fisher). Trypsin was then inactivated by adding complete growth medium and the cells were then replated in a T175 culture dish at the appropriate dilution. All cell lines were routinely tested for mycoplasma contamination. Tissue type and mutational status of each cell line can be found in Table B.
(§2) AlphaLISA® SureFire® Ultra™ p-ERK 1/2 (Thr202/Tyr204) analysis was conducted on cells plated in 100 μL of complete RPMI-1640 growth medium in 96-well flat-bottomed transparent dishes (Costar) at a density indicated in Table C. Cells were maintained overnight at 37° C. under 5% CO2 before treatment with compounds' dilution series for one hour. The cell density in cells/cm^2 corresponds to cell number divided by the area of one well of a 96-well plate ([…]).
(§3) In a dilution series 100 μL/well of test substance dilution prepared in complete RPMI-1640 growth media was added to the cells. The dilution series is selected so that ten concentrations cover a range from 10 μM to 0.33 nM. If necessary the initial concentration of 10 μM is increased to 100 μM or lowered to 1 μM (as in the case of A375 and H1666 cells, which are generally more sensitive to the compounds) and further dilution is carried out accordingly. The final concentration of DMSO in the assay is set at 0.5%.
(§4) After treatment, media was removed and cells were lysed in 50 μL of 1× AlphaScreen Ultra Lysis Buffer (Perkin Elmer). The AlphaLISA® SureFire® Ultra™ p-ERK 1/2 (Thr202/Tyr2O4) (PerkinElmer) reactions were performed with 5 μL of cell lysate according to the manufacturer's specifications in 384-well proxyplates (Perkin Elmer) followed by overnight incubation of the reactions at room temperature in a humidified chamber. After completion of the reactions, the signals were recorded on an EnVision plate reader (Perkin Elmer) using built in AlphaLISA® settings.
(§5) The effect of each compound dilution on the pERK signal was expressed in % inhibition and calculated as follows. An internal 100% inhibition control (1 M trametinib, cat #HY-10999; MedChem Express; CAS #871700-17-3) was included in each plate and used as a measure of pERK background. First, the value obtained for trametinib was subtracted from each data point. The average of DMSO (vehicle) controls (set as 0% inhibition) was established and used to calculate % inhibition: % inhibition=100*(1-((pERK signalcompound)/(pERK signalDMSO)))
(§6) The ability of each compound to inhibit pERK signal was expressed as an IC50 value obtained by plotting the inhibition values for each data point of a dilution series and fitting the obtained curves using a log(agonist) versus response-variable slope (four parameters) function using GraphPadPrism (V7.0) or Dotmatics Screening Ultra platform.
(§7) When present, paradoxical pERK induction is inferred from the negative % inhibition values observed in the pERK IC50 curves of a compound.

[3] = test system: pERK in NCI-H358 cells (KRAS-G12C); test: Phospho-ERK inhibition (AlphaLISA), NCI-H358; conditions: for NCI-H358 pERK % Ymin: NCI-H358, value in parentheses; for pIC50: read-out: NCI-H358 pERK IC50, NCI-H358
Protocol: as §1, §2, §3, §4, §5, §6, §7

[4] = test system: pERK in NCIH2087 cells (BRAF L597V; KRAS Q61K); test: Phospho-ERK inhibition (AlphaLISA), NCIH2087; conditions: for NCIH2087 pERK % Ymin: NCIH2087, value in parentheses; for pIC50: read-out: NCIH2087 pERK IC50, NCIH2087
Protocol: as §1, §2, §3, §4, §5, §6, §7

[5] = test system: HT29 cells (BRAF V600E); test: Proliferation inhibition (CellTiter-Glo), HT29; conditions: read-out: HT-29 Prolif. EC50; HT-29, 3 days
Protocol: as §1
(§8) CellTiter-Glo® viability analysis was conducted on cells plated in 100 μL of complete RPMI-1640 growth medium in 96-well flat-bottomed white opaque plates (Greiner or Croning) at a density indicated in Table E (for each CCL, number of cells plated per well of a 96-well plate to perform the CellTiter-Glo® cell viability assay). The cell density in cells/cm^2 would correspond to cell number divided by the area of one well of a 96-well plate (0.32 cm^2). Cells were maintained overnight at 37° C. under 5% CO2 before treatment with compounds' dilution series for 3 days.
(§9) In a dilution series 100 μL/well of test substance dilution prepared in complete RPMI-1640 growth media was added to the cells plated initially in 100 μL of growth media. The dilution series is selected so that ten concentrations cover a range from 10 μM to 0.33 nM. If necessary (as in the case of A375 cells, which were more sensitive to the compounds) the initial concentration of 10 μM is lowered to 1 μM and further dilution is carried out accordingly. The final concentration of DMSO in the assay is set at is 0.5%.
(§10) After 3 days of incubation, the growth media were removed by aspiration and 60 μL of diluted CellTiter-Glo® reagent (10 μL CellTiter-Glo® reagent+50 μL of PBS) was added to each well. Cells were allowed to lyse and to equilibrate in CellTiter-Glo® reagent by 5 min incubation on a plate shaker followed by 10 min incubation at room temperature. Luminescence signals were then acquired on a Synergy Neo2 plate reader (Biotek).
as §5, with “proliferation of cancer cell lines” for “pERK signal”, “μM of trametinib;” for “M trametinib,”, “CellTiter-Glo® signal” for “pERK”, “The” for “First, the”, “inhibition=100*(1−((CellTiter-Glo® signalcompound)/(CellTiter-Glo®” for “inhibition=100*(1-((pERK signalcompound)/(pERK”
as §6, with “proliferation” for “pERK signal”, “a EC50” for “an IC50”, “effect” for “inhibition”

[6] = test system: Lovo cells (KRAS-G13D); test: Proliferation inhibition (CellTiter-Glo), Lovo; conditions: read-out: Lovo Prolif. EC50, 3 days
Protocol: as §1, §8, §9, §10
as §5, with “proliferation of cancer cell lines” for “pERK signal”, “μM of trametinib;” for “M trametinib,”, “CellTiter-Glo® signal” for “pERK”, “The” for “First, the”, “inhibition=100*(1−((CellTiter-Glo® signalcompound)/(CellTiter-Glo®” for “inhibition=100*(1-((pERK signalcompound)/(pERK”
as §6, with “proliferation” for “pERK signal”, “a EC50” for “an IC50”, “effect” for “inhibition”

[7] = HCT116 cells, class symbol before the bracket

Row | Structure (SMILES) | HCT116 pERK % Ymin ([1]; HCT116, Table D) | HCT116 pERK % Ymin (lowest value of the IC50 curve) ([1]; HCT116 cells) | pIC50 ([1]; HCT116, Table D) | pIC50 ([1]; HCT116 cells) | IPC298 pERK % Ymin [2] | pIC50 [2] | NCI-H358 pERK % Ymin [3] | pIC50 [3] | NCIH2087 pERK % Ymin [4] | pIC50 [4] | pEC50 [5] | pEC50 [6] | pIC50 ([1]; HCT116 cells, class symbol) | HCT116 pERK Ymin % ([1]; HCT116 cells) | pIC50 [1, 7]
1 | CCC1(O)CCN(c2cccc3c2ncn3-c2ccc3ncnc(Nc4c(F)ccc(NS(=O)(=O)c5cccc(Cl)c5Cl)c4F)c3n2)CC1 | −7% | −7% | 6.52 to 7.52 | > 6.30 | 9% | 6.52 to 7.52 | 1% | 6.52 to 7.52 | 5% | > 7.52 | > 7.52 | > 7.52 | – | – | –
2 | O=S(=O)(Nc1ccc(F)c(Nc2ncnc3ccc(-n4cnc5c(N6CCC(O)(C(F)(F)F)CC6)cccc54)nc23)c1F)c1cccc(Cl)c1Cl | −9% | −9% | 6.52 to 7.52 | > 6.30 | 2% | 6.52 to 7.52 | 0% | 6.52 to 7.52 | −8% | > 7.52 | > 7.52 | > 7.52 | – | – | –
3 | COc1ccc(S(=O)(=O)Nc2ccc(F)c(Nc3ncnc4ccc(-n5cc(S(=O)(=O)N(C)CCN(C)C)c6ccccc65)nc34)c2F)c(C)c1F | −9% | – | 6.52 to 7.52 | – | 17% | 6.52 to 7.52 | −11% | 6.52 to 7.52 | −1% | > 7.52 | > 7.52 | > 7.52 | > 6.30 | – | –
4 | Cc1c(Cl)cccc1S(=O)(=O)Nc1ccc(F)c(Nc2ncnc3ccc(-n4cnc5c(N)cccc54)nc23)c1F | 4.8% | – | 6.52 to 7.52 | – | 18% | 6.52 to 7.52 | 3% | 6.52 to 7.52 | 6% | > 7.52 | > 7.52 | 5.52 to 6.52 | – | 2.9% | > 6.30
5 | O=S(=O)(Nc1ccc(F)c(Nc2ncnc3ccc(-n4nnc5ccccc54)nc23)c1F)c1cccc(Cl)c1Cl | −11% | – | 6.52 to 7.52 | – | 2% | 6.52 to 7.52 | 23% | > 7.52 | 19% | > 7.52 | > 7.52 | > 7.52 | – | −1.9% | > 6.30
